Test results published in US8962608B2, “Cycloalkylnitrile pyrazole carboxamides as janus kinase inhibitors” (Merck Sharp & Dohme Corp., priority 2011, dated 2015).

By UniProt entry, the sequences of proteins in these tests, tags left out. Residues count along the entry.
UniProt P23458, 875-1153: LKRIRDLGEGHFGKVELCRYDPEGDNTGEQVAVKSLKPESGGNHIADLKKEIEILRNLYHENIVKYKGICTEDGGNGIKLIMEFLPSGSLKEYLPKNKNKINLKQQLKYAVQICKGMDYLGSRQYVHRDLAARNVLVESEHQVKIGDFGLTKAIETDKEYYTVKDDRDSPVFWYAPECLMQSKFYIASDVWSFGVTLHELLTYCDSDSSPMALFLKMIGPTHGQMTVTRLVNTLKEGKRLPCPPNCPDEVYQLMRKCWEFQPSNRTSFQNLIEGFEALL

Target: JAK1 (recombinant purified GST-tagged catalytic domain) (Homo sapiens (Human), UniProt P23458)
Test: biochemical
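Note: biochemical assay with HTRF read-out.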

Structure (SMILES) | IC50 [nM]
N#C[C@H]1C[C@H](NC2CC2)CC[C@@H]1n1cc(C(N)=O)c(Nc2ccc(C(F)(F)F)cc2)n1 (single isomer, unassigned) [Example 28-139, 1-[(1S,2S,4R or 1R,2R,4R)-2-cyano-4-(cyclopropylamino)cyclohexyl]-3-{[4-(trifluoromethyl)phenyl]amino}-1H-pyrazole-4-carboxamide] | 5
CS(=O)(=O)c1ccc(Nc2nn([C@H]3CC[C@H](N4CC5(CCC5)C4)C[C@@H]3C#N)cc2C(N)=O)cc1 (single isomer, unassigned) [Example 28-130, 1-[(1S,2S,4S or 1R,2R,4R)-4-(2-azaspiro[3.3]hept-2-yl)-2-cyanocyclohexyl]-3-{[4-(methylsulfonyl)phenyl]amino}-1H-pyrazole-4-carboxamide] | 0.25
CN(C)[C@H]1CC[C@H](n2cc(C(N)=O)c(Nc3ccc(C(F)(F)F)nc3)n2)[C@@H](C#N)C1 (single isomer, unassigned) [Example 28-22, 1-[(1S,2S,4S or 1R,2R,4R)-2-cyano-4-(dimethylamino)cyclohexyl]-3-{[6-(trifluoromethyl)pyridin-3-yl]amino}-1H-pyrazole-4-carboxamide] | 8
CS(=O)(=O)c1ccc(Nc2nn([C@H]3CC[C@@H](N4CC5(CCC5)C4)C[C@@H]3C#N)cc2C(N)=O)cc1 (single isomer, unassigned) [Example 28-145, 1-[(1S,2S,4R or 1R,2R,4S)-4-(2-azaspiro[3.3]hept-2-yl)-2-cyanocyclohexyl]-3-{[4-(methylsulfonyl)phenyl]amino}-1H-pyrazole-4-carboxamide] | 0.25
N#C[C@H]1C[C@@H](OCC2CC2)CC[C@@H]1n1cc(C(N)=O)c(Nc2ccc(F)cc2)n1 (single isomer, unassigned) [Example 26-9, 1-[(1S,2S,4S or 1R,2R,4R)-2-cyano-4-(cyclopropylmethoxy)cyclohexyl]-3-[(4-fluorophenyl)amino]-1H-pyrazole-4-carboxamide] | 4
N#C[C@H]1C[C@@H](OC(=O)Nc2ccccc2)CCC1n1cc(C(N)=O)c(Nc2ccc(F)cc2)n1 (mixture of isomers) [Example 34-1, (1S,3S,4S and 1R,3R,4R)-4-{4-Carbamoyl-3-[(4-fluorophenyl)amino]-1H-pyrazol-1-yl}-3-cyanocyclohexyl phenylcarbamate] | 7
N#C[C@H]1C[C@@H](O)CCC1n1cc(C(N)=O)c(Nc2ccc(F)cc2)n1 (mixture of isomers) [Example 5, 1-[(1S,2S,4S and 1R,2R,4R)-2-Cyano-4-hydroxycyclohexyl]-3-[(4-fluorophenyl)amino]-1H-pyrazole-4-carboxamide] | 2
N#C[C@H]1C[C@@H](C(=O)NC2CCC2)CC[C@@H]1n1cc(C(N)=O)c(Nc2ccc(Cl)cc2)n1 (single isomer, unassigned) [Example 35-12, 3-[(4-chlorophenyl)amino]-1-[(1S,2S,4S or 1R,2R,4R)-2-cyano-4-(cyclobutylcarbamoyl)cyclohexyl]-1H-pyrazole-4-carboxamide] | 20
CN(CC1CC1)[C@@H]1CC[C@H](n2cc(C(N)=O)c(Nc3ccc(C(F)(F)F)cc3)n2)[C@@H](C#N)C1 (single isomer, unassigned) [Example 30-2, 1-{(1S,2S,4R or 1R,2R,4S)-2-cyano-4-[(cyclopropyl-methyl)(methyl)amino]cyclo-hexyl}-3-{[4-(trifluoromethyl)phenyl]amino}-1H-pyrazole-4-carboxamide] | 4
N#C[C@H]1C[C@H](OCC2CC2)CC[C@@H]1n1cc(C(N)=O)c(Nc2ccc([C@@H](O)C(F)(F)F)cc2)n1 (single isomer, unassigned) [Example 26-5, 1-[(1S,2S,4R or 1R,2R,4S)-2-cyano-4-(cyclopropylmethoxy)cyclohexyl]-3-({4-[(1R or 1S)-2,2,2-trifluoro-1-hydroxyethyl]phenyl}amino)-1H-pyrazole-4-carboxamide] | 2
N#C[C@H]1C[C@@H](NCC(F)(F)F)CCC1n1cc(C(N)=O)c(Nc2ccc(S(=O)(=O)C(F)(F)F)cc2)n1 (mixture of isomers) [Example 27-11, 1-{(1S,2S,4S and 1R,2R,4R)-2-cyano-4-[(2,2,2-trifluoroethyl)amino]cyclohexyl}-3-({4-[(trifluoromethyl)sulfonyl]phenyl}amino)-1H-pyrazole-4-carboxamide] | 0.55
CC1(C)CN([C@@H]2CC[C@H](n3cc(C(N)=O)c(Nc4ccc(C(F)(F)F)cc4)n3)[C@@H](C#N)C2)C1 (single isomer, unassigned) [Example 28-203, 1-[(1S,2S,4R or 1R,2R,4S)-2-cyano-4-(3,3-dimethylazetidin-1-yl)cyclohexyl]-3-{[4-(trifluoromethyl)phenyl]amino}-1H-pyrazole-4-carboxamidc] | 2
N#C[C@H]1C[C@H](NCc2c(F)cccc2F)CC[C@@H]1n1cc(C(N)=O)c(Nc2ccc(C(F)(F)F)cc2)n1 (single isomer, unassigned) [Example 30-13, 1-{(1S,2S,4R or 1R,2R,4S)-2-cyano-4-[(2,6-difluoro-benzyl)amino]cyclohexyl}-3-{[4-(trifluoromethyl)phenyl]amino}-1H-pyrazole-4-carboxamide] | 11
N#C[C@H]1C[C@H](OC(=O)Nc2ccccc2)CCC1n1cc(C(N)=O)c(Nc2ccc(F)cc2)n1 (mixture of isomers) [Example 34-3, (1R,3S,4S and 1S,3R,4R)-4-{4-carbamoyl-3-[(4-fluorophonyl)aminol-1H-pyrazol-1-yl}-3-cyanocyclohexyl phenylcarbamate] | 0.95
N#C[C@H]1C[C@@H](OCC2CC2)CC[C@H]1n1cc(C(N)=O)c(Nc2ccc(F)cc2)n1 (single isomer, unassigned) [Example 26-11, 1-[(1R,2S,4S or 1S,2R,4R)-2-cyano-4-(cyclopropylmethoxy)cyclohexyl]-3-[(4-fluorophenyl)amino]-1H-pyrazole-4-carboxamide] | 350
CN(C(C1CC1)C1CC1)[C@@H]1CC[C@H](n2cc(C(N)=O)c(Nc3ccc(S(=O)(=O)C(F)(F)F)cc3)n2)[C@@H](C#N)C1 (single isomer, unassigned) [Example 28-179, 1-{(1S,2S,4R or 1R,2R,4S)-2-cyano-4-[(dicyclopropyl-methyl)(methyl)amino]cyclo-hexyl}-3-({4-[(trifluoromethyl)sulfonyl]phen-yl}amino)-1H-pyrazole-4-carboxamide] | 7

More lines, now with the values ahead:

IC50 [nM] | Structure (SMILES)
4 | Cc1cc(Nc2nn([C@H]3CCCC[C@@H]3C#N)cc2C(N)=O)cnc1C#N (single isomer, unassigned) [Example 17-77, 1-[(1R,2R or 1S,2S)-2-cyanocyclohexyl]-3-[(6-cyano-5-methylpyridin-3-yl)amino]-1H-pyrazole-4-carboxamide]
2 | CN[C@H]1CC[C@H](n2cc(C(N)=O)c(Nc3ccc(Cl)c(F)c3)n2)[C@@H](C#N)C1 (single isomer, unassigned) [Example 28-43, 3-[(4-chloro-3-fluorophenyl)amino]-1-[(1S,2S,4S or 1R,2R,4R)-2-cyano-4-(methylamino)cyclohexyl]-1H-pyrazole-4-carboxamide]
0.53 | N#C[C@H]1CCCC[C@@H]1n1cc(C(N)=O)c(Nc2ccc(C=O)cc2)n1 (single isomer, unassigned) [Example 17-25, 1-[(1S,2S or 1R,2R)-2-cyanocyclohexyl]-3-[(4-formylphenyl)amino]-1H-pyrazole-4-carboxamide]
30 | CN(C)[C@@H]1CC[C@@H](n2cc(C(N)=O)c(Nc3ccc(C(F)(F)F)nc3)n2)[C@H](C#N)C1 (single isomer, unassigned) [Example 28-18, 1-[(1R,2R,4R or 1S,2S,4S)-2-cyano-4-(dimethylamino)cyclohexyl]-3-{[6-(trifluoromethyl)pyridin-3-yl]amino}-1H-pyrazole-4-carboxamide]
0.5 | N#C[C@H]1CCCCC1n1cc(C(N)=O)c(Nc2ccc(S(=O)(=O)C(F)F)cc2)n1 (mixture of isomers) [Example 17-9, 1-[(1S,2S and 1R,2R)-2-cyanocyclohexyl]-3-({4-[(difluoromethyl)sulfonyl]phenyl}amino)-1H-pyrazole-4-carboxamide]
3 | N#C[C@@H]1CCCC[C@H]1n1cc(C(N)=O)c(Nc2ccc(S(=O)(=O)C(F)F)cc2)n1 (single isomer, unassigned) [Example 43-5, 1-[(1S,2S or 1R,2R)-2-cyanocyclohexyl]-3-({4-[(difluoromethyl)sulfonyl]phenyl}amino)-1H-pyrazole-4-carboxamide]
1 | CN(CC(F)(F)F)[C@H]1CCC(n2cc(C(N)=O)c(Nc3ccnc(F)c3)n2)[C@@H](C#N)C1 (single isomer, unassigned) [Example 28-233, 1-{(1S,2S,4S or 1R,2R,4R)-2-cyano-4-[methyl(2,2,2-trifluoroethyl)amino]cyclo-hexyl}-3-[(2-fluoropyridin-4-yl)amino]-1 H-pyrazole-4-carboxamide]
2 | CN[C@@H]1CC[C@H](n2cc(C(N)=O)c(Nc3ccc(Cl)c(F)c3)n2)[C@@H](C#N)C1 (single isomer, unassigned) [Example 28-39, 3-[(4-chloro-3-fluorophenyl)amino]-1-[(1S,2S,4R or 1R,2R,4S)-2-cyano-4-(methylamino)cyclohexyl]-1H-pyrazole-4-carboxamide]
2 | CC(C)(c1ccc(Nc2nn([C@H]3CCCC[C@@H]3C#N)cc2C(N)=O)cc1F)[C@H](O)C(F)(F)F (single isomer, unassigned) [Example 17-32, 1-[(1S,2S or 1R,2R)-2-cyanocyclohexyl]-3-({3-fluoro-4-[(2S or 2R)-3,3,3-trifluoro-2-hydroxy-1,1-dimethylpropyl]phenyl}amino)-1H-pyrazole-4-carboxamide]
0.67 | N#C[C@H]1CCCC[C@@H]1n1cc(C(N)=O)c(Nc2ccc([C@H](O)C(F)F)nc2)n1 (single isomer, unassigned) [Example 17-37, 1-[(1S,2S or 1R,2R)-2-cyanocyclohexyl]-3-({6-[(1S or 1R)-2,2-difluoro-1-hydroxyethyl]pyridin-3-yl}amino)-1H-pyrazole-4-carboxamide]
